According to patent US10385405B2, “Gene expression markers of tumor resistance to HER2 inhibitor treatment” (GENENTECH, INC., priority 2007, dated 2019):

Assays:
BT474M1 cells = experiment: 3D culture of BT474M1 cells with dox-inducible PPM1H shRNA, colony size; type: cell-based, human; details: 3D culture for 10 days
Experimental: FIG. 23. […] Data are represented as box and whisker plots (whiskers are 5th and 95th percentile).
To determine the impact of PPM1H knockdown in 3D culture, we created stable BT474M1 cell lines carrying doxycycline (dox)-inducible PPM1H shRNA. […] The same cell line was grown in 3D culture for 10 days in the presence or absence of dox, after which colony size was visualized and quantitated. […] PPM1H knockdown was verified at the protein level in the 3D culture model (FIG. 25).

HER2-expressing tumors = details: patients who test positive for HER2 by IHC or FISH; cited from earlier work

Q: With “trastuzumab: recombinant humanized version of the murine HER2 antibody 4D5” as the substance, how does the “colony size compared to untreated colonies” value (BT474M1 cells; absence of dox) read?
A: The value was “significantly smaller”.

Q: What about the “trastuzumab effect on colony size” value (BT474M1 cells; presence of dox (PPM1H knockdown)) of the same substance?
A: Its value is “significantly diminished”.

Q: And the “patients exhibiting an objective response” value (HER2-expressing tumors)?
A: The value was “approximately 30%”.
